Measurements as given in US7014858B2, “Use methods of treating acne and telangiectasia” (CollaGenex Pharmaceuticals, Inc., priority 2001, dated 2006).

Conditions: in vivo

## tetracycline pyrazole [CMT-5]
  biodistribution: only limited biodistribution
